Values of other authors in US20240043493A1, “ACYLATED SINGLE-CHAIN INSULIN ANALOGUES” (CASE WESTERN RESERVE UNIVERSITY, priority 2020, published 2024).

Conditions: for each 10° C. increment in temperature above 25° C.

For Insulin, which “increase in degradation rate” value is on record?
Its value is no less than 10 fold.
